Results reported in ChEMBL document CHEMBL4673352, “Discovery of AZD4573, a Potent and Selective Inhibitor of CDK9 That Enables Short Duration of Target Engagement for the Treatment of Hematological Malignancies” (J Med Chem, 2020).

Chains of the proteins cited; added tags and fusions are not shown.
UniProt P50750, whole entry: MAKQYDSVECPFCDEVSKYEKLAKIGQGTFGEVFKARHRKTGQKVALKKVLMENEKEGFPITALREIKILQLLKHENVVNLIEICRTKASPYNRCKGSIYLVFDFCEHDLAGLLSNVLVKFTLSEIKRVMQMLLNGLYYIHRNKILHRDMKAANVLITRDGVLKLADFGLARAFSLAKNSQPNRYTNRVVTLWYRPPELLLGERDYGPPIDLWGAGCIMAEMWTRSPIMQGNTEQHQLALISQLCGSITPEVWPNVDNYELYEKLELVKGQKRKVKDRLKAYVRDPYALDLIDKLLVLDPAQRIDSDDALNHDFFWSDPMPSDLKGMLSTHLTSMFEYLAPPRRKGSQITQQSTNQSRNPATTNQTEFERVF

Assays:
[1] = molecular target: T1, Cyclin-dependent kinase 9 (Homo sapiens, UniProt P50750); test: Inhibition of CDK9 in human MCF7 cells assessed as reduction in RNA Polymerase 2 CTD phosphorylation at Ser2 residues measured after 6 hrs by immunofluorescence assay; assay type: cell-based
[2] = molecular target: T1, Cyclin-dependent kinase 9; test: Inhibition of CDK9 in human MV4-11 cells assessed as induction of caspase-3/7 activation measured after 6 hrs followed by Caspase-glo reagent based assay; assay type: cell-based
CDK9/cyclin T1 = CDK9/cyclin T1 (Homo sapiens, UniProt P50750); test: Inhibition of recombinant full length human N-terminal GST-fused CDK9 (1 to 372 residues)/His-tagged CyclinT1 (1 to 726 residues) expressed in baculovirus infected insect cells using FITC-X-GSRTPMY-NH2 as substrate preincubated for 10 mins followed by MgCl2 addition and measured after 90 mins in presence of 5 mM ATP by mobility shift assay

COc1cc(F)ccc1-c1ccnc(NC(=O)[C@H]2CCC[C@@H](NC(C)=O)C2)c1 was tested, and the IC50 [1] was 0.13 µM, the EC50 [2] was 0.22 µM and the IC50 (CDK9/cyclin T1) was 0.029 µM.
